Results taken from patent publication US12421238B2, “Selective dihydropyrrolopyrimidine JAK2 inhibitors” (CHENGDU JINRUI FOUNDATION BIOTECH CO., LTD., priority 2019, dated 2025).

Sequences of proteins named here, by UniProt entry; tags and fusion partners are left off. A change or cut given only in a name is not applied to a line headed by its entry.
UniProt O60674: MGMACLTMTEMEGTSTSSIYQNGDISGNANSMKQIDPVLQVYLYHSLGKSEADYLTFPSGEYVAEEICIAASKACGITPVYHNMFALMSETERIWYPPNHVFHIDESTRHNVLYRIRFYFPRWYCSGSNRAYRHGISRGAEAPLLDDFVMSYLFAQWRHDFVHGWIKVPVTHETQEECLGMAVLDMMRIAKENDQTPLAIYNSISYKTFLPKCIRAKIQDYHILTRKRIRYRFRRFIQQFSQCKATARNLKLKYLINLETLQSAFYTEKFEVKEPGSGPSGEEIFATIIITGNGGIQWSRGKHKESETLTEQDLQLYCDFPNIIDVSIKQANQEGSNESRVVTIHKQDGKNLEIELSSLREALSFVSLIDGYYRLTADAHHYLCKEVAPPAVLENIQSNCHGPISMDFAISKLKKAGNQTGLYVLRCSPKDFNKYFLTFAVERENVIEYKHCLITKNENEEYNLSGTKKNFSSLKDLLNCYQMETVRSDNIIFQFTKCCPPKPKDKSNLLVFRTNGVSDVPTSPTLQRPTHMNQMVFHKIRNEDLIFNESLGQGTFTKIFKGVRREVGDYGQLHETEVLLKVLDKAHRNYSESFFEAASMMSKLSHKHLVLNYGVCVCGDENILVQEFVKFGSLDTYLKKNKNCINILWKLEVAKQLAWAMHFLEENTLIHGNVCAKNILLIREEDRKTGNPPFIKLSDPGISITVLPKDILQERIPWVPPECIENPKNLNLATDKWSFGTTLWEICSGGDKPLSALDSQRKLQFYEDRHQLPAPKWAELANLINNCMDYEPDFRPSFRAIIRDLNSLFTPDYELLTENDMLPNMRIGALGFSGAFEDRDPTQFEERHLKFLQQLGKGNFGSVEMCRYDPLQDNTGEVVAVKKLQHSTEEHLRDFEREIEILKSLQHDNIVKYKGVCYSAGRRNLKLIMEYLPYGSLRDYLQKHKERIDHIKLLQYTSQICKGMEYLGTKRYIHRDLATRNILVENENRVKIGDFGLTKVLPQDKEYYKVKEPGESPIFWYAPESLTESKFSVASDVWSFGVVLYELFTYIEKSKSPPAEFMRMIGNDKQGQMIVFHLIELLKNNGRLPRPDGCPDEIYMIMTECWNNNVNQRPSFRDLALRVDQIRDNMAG

Legend:
JAK2 = JAK2 (Homo sapiens, UniProt O60674); assay: Kinase activity test on JAK2 (Caliper EZ Reader conversion rate)
TF-1 = TF-1 cell proliferation experiment (CellTiter Glo); format: cell-based; conditions: Homo sapiens; TF-1 cells, 72 hours; read-out: TF-1 (μM), proliferation inhibition
HEL92.1.7 = HEL92.1.7 cell proliferation experiment (Cell Titer-Glo); format: cell-based; conditions: Homo sapiens, HEL 92.1.7; HEL92.1.7 cells, 72 hours

Question: How did the IC50 (JAK2) turn out when `CCS(=O)(=O)N1CC(CC#N)(n2cc(-c3ncnc4[nH]ccc34)cn2)C1` [Baricitinib, reference compound] was run?
Answer: 5.9 nM

Question: For `N#CC[C@H](C1CCCC1)n1cc(-c2ncnc3[nH]ccc23)cn1` [Ruxolitinib, reference compound], which IC50 (TF-1) is on record?
Answer: 0.32 µM

Question: And the IC50 (HEL92.1.7)?
Answer: 1.12 µM
